Reference: PMC6663879, “Biochemical and structural investigations clarify the substrate selectivity of the 2-oxoglutarate oxygenase JMJD6” (The Journal of Biological Chemistry, 2019)

How the values were obtained:
[1] = biological target: T1, JMJD6^Δ363–403 (Homo sapiens, UniProt Q6NYC1); test: Standard MS-based demethylation assay (MALDI-TOF, LC-MS/MS); type: biochemical; set-up: two more variants (aa 1–362, JMJD6^Δ363–403, and aa 1–343, JMJD6^Δ344–403); His6 (N); made in house; host or cells: Escherichia coli Rosetta2(DE3); details: JMJD6^Δ363–403, 37 °C, HEPES-KOH pH 8.0, MALDI-TOF MS / LC-MS/MS
Protocol: Reaction samples were thereafter analyzed by MALDI-TOF or LC-MS/MS.
Peptides were “trapped” on an in-house packed guard column (75-μm inner diameter × 20 mm, Acclaim PepMap® C18, 3 μm, 100 Å) using solvent A (0.1% (v/v) aqueous formic acid) at a pressure of 140 bar. Peptides were separated on an EASY-Spray Acclaim PepMap® analytical column (75 μm inner diameter × 15 mm, rapid separation liquid chromatography C18, 3 μm, 100 Å) using a linear gradient (length, 100 min; 3–60% solvent B (0.1% formic acid in acetonitrile), flow rate, 300 nl/min). The separated peptides were electro-sprayed directly into the spectrometer operating in a data-dependent mode using a collision-induced dissociation/electron transfer dissociation (CID/ETD)-based method. Full scan MS spectra (scan range 150–2000 m/z, resolution 30,000, AGC target 1 × 10^6, maximum injection time 250 ms) and subsequent CID MS/MS spectra (AGC target 3 × 10^4, maximum injection time 500 ms) of the 10 most intense peaks were acquired in the Orbitrap. CID fragmentation was performed at 35% of the normalized collision energy, and the signal intensity threshold was kept at 500 counts. ETD spectra (AGC cation target 5 × 10^4, AGC anion target 2 × 10^5, and cation maximum injection time 100 ms) were acquired in the ion trap. PEAKS® 8.0 (Bioinformatics Solutions, Inc., Waterloo, Canada) was used to analyze raw data. […]

[2] = biological target: T1, JMJD6^Δ363–403; test: Standard MS-based hydroxylation assay (MALDI-TOF MS) of substrate peptides; type: biochemical; set-up: two more variants (aa 1–362, JMJD6^Δ363–403, and aa 1–343, JMJD6^Δ344–403); His6 (N); made in house; host or cells: Escherichia coli Rosetta2(DE3); details: JMJD6^Δ363–403, standard assay conditions, MALDI-TOF MS / LC-MS/MS

## H3K9me1_1–17: histone peptide monomethylated at Lys^9
[1]
  JMJD6-catalyzed demethylation (−14 or −28 Da mass shift), result in words: not demethylation
[2]
  JMJD6-catalyzed hydroxylation (+16-Da mass shift), result in words: a +16-Da mass shift was observed
